Assay results as given in patent publication US20200354426A1 (MEDIMMUNE LIMITED, priority 2016, published 2020).
Like-named read-outs stand apart in the source and are kept apart here.

System: healthy volunteers
[1] = single dose 300 μg, plasma, geometric mean

Substance: L-Histidyl-L-seryl-L-glutaminylglycyl-L-threonyl-L-phenylalanyl-L-threonyl-L-seryl-L-alpha-aspartyl-(N6-[N-(1-oxohexadecyl)-L-gamma-gutamyl])L-lysy-L-sery-L-alpha-glutamyl-L-tyrosyl-L-leucyl-L-alpha-aspartyl-L-seryl-L-alpha-glutamyl-L-arginyl-L-alanyl-L-arginyl-L-alpha-L-aspartyl-L-phenylalanyl-L-valyl-L-alanyl-L-tryptophyl-L-leucyl-L-alpha-glutamyl-L-alanylglycylglycine [Peptide G933]
- Subjects with TEAE: Abdominal pain (150 μg, N = 6): 0
- Subjects with TEAE: Application site erosion (150 μg, N = 6): 0
- Subjects with TEAE: Arrhythmia (150 μg, N = 6): 0
- Subjects with TEAE: Atrioventricular block second degree (150 μg, N = 6): 0
- Subjects with TEAE: Cardiac Disorders (150 μg, N = 6): 0
- Subjects with TEAE: Decreased appetite (150 μg, N = 6): 2 (33.3%)
- Subjects with TEAE: Diarrhoea (150 μg, N = 6): 0
- Subjects with TEAE: Dizziness (150 μg, N = 6): 2 (33.3%)
- Subjects with TEAE: Gastrointestinal Disorders (150 μg, N = 6): 5 (83.3%)
- Subjects with TEAE: Headache (150 μg, N = 6): 1 (16.7%)
- Subjects with TEAE: Immune System Disorders (150 μg, N = 6): 0
- Subjects with TEAE: Infections and infestations (150 μg, N = 6): 0
- Subjects with TEAE: Injury associated with device (150 μg, N = 6): 0
- Subjects with TEAE: Injury, poisoning and procedural complications (150 μg, N = 6): 0
- Subjects with TEAE: Metabolism and nutrition disorders (150 μg, N = 6): 2 (33.3%)
- Subjects with TEAE: Musculoskeletal and connective tissue disorders (150 μg, N = 6): 0
- Subjects with TEAE: Musculoskeletal chest pain (150 μg, N = 6): 0
- Subjects with TEAE: Nasopharyngitis (150 μg, N = 6): 0
- Subjects with TEAE: Nausea (150 μg, N = 6): 4 (66.7%)
- Subjects with TEAE: Nervous system disorders (150 μg, N = 6): 2 (33.3%)
- Subjects with TEAE: Oropharyngeal pain (150 μg, N = 6): 1 (16.7%)
- Subjects with TEAE: Procedural dizziness (150 μg, N = 6): 0
- Subjects with TEAE: Respiratory, thoracic and mediastinal disorders (150 μg, N = 6): 1 (16.7%)
- Subjects with TEAE: Seasonal allergy (150 μg, N = 6): 0
- Subjects with TEAE: Ventricular extrasystoles (150 μg, N = 6): 0
- Subjects with TEAE: Vomiting (150 μg, N = 6): 4 (66.7%)
- TEAE: Subject with at least one event (150 μg, N = 6): 5 (83.3%)
- subjects with vomiting (300 μg single dose): 5 subjects
- tolerability (300 μg single dose): not tolerated
- vomiting episodes (300 μg single dose): Thirty
- subjects with significant vomiting (300 μg single dose (5 of 6 subjects)): 83.3%
- Subjects with TEAE: Abdominal distension (300 μg, N = 6): 0
- Subjects with TEAE: Abdominal pain (300 μg, N = 6): 0
- Subjects with TEAE: Application site erosion (300 μg, N = 6): 0
- Subjects with TEAE: Arrhythmia (300 μg, N = 6): 0
- Subjects with TEAE: Atrioventricular block second degree (300 μg, N = 6): 0
- Subjects with TEAE: Cardiac Disorders (300 μg, N = 6): 1 (16.7%)
- Subjects with TEAE: Diarrhoea (300 μg, N = 6): 0
- Subjects with TEAE: Dizziness (300 μg, N = 6): 1 (16.7%)
- Subjects with TEAE: Gastrointestinal Disorders (300 μg, N = 6): 5 (83.3%)
- Subjects with TEAE: Headache (300 μg, N = 6): 0
- Subjects with TEAE: Immune System Disorders (300 μg, N = 6): 0
- Subjects with TEAE: Infections and infestations (300 μg, N = 6): 0
- Subjects with TEAE: Injury associated with device (300 μg, N = 6): 1 (16.7%)
- Subjects with TEAE: Injury, poisoning and procedural complications (300 μg, N = 6): 0
- Subjects with TEAE: Metabolism and nutrition disorders (300 μg, N = 6): 0
- Subjects with TEAE: Musculoskeletal and connective tissue disorders (300 μg, N = 6): 0
- Subjects with TEAE: Musculoskeletal chest pain (300 μg, N = 6): 0
- Subjects with TEAE: Nasopharyngitis (300 μg, N = 6): 0
- Subjects with TEAE: Nausea (300 μg, N = 6): 3 (50.0%)
- Subjects with TEAE: Nervous system disorders (300 μg, N = 6): 1 (16.7%)
- Subjects with TEAE: Oropharyngeal pain (300 μg, N = 6): 0
- Subjects with TEAE: Procedural dizziness (300 μg, N = 6): 0
- Subjects with TEAE: Respiratory, thoracic and mediastinal disorders (300 μg, N = 6): 0
- Subjects with TEAE: Seasonal allergy (300 μg, N = 6): 0
- Subjects with TEAE: Ventricular extrasystoles (300 μg, N = 6): 1 (16.7%)
- Subjects with TEAE: Vomiting (300 μg, N = 6): 5 (83.3%)
- TEAE: Subject with at least one event (300 μg, N = 6): 5 (83.3%)
- Median diastolic BP maximum post dose change (Dose (µg) 5): 13 mm Hg
- Number of subjects with vomiting (Dose (µg) 5): 0 (0)
- vomiting episodes (Dose (µg) 5): 0 (0)
- Median diastolic BP maximum post dose change (Dose (µg) 10): 8 mm Hg
- Number of subjects with vomiting (Dose (µg) 10): 0 (0)
- vomiting episodes (Dose (µg) 10): 0 (0)
- Median diastolic BP maximum post dose change (Dose (µg) 30): 10.5 mm Hg
- Number of subjects with vomiting (Dose (µg) 30): 0 (0)
- vomiting episodes (Dose (µg) 30): 0 (0)
- Median diastolic BP maximum post dose change (Dose (µg) 100): 16 mm Hg
- Number of subjects with vomiting (Dose (µg) 100): 1 (1)
- vomiting episodes (Dose (µg) 100): 1 (1)
- Median diastolic BP maximum post dose change (Dose (µg) 150): 15 mm Hg
- Number of subjects with vomiting (Dose (µg) 150): 4
- vomiting episodes (Dose (µg) 150): 9
- Median diastolic BP maximum post dose change (Dose (µg) 300): 19 mm Hg
- Number of subjects with vomiting (Dose (µg) 300): 5
- vomiting episodes (Dose (µg) 300): 30
- Subjects with TEAE: Abdominal distension (Total G933, N = 36): 2 (5.6%)
- Subjects with TEAE: Abdominal pain (Total G933, N = 36): 1 (2.8%)
- Subjects with TEAE: Application site erosion (Total G933, N = 36): 1 (2.8%)
- Subjects with TEAE: Arrhythmia (Total G933, N = 36): 1 (2.8%)
- Subjects with TEAE: Atrioventricular block second degree (Total G933, N = 36): 1 (2.8%)
- Subjects with TEAE: Cardiac Disorders (Total G933, N = 36): 3 (8.3%)
- Subjects with TEAE: Decreased appetite (Total G933, N = 36): 2 (5.6%)
- Subjects with TEAE: Diarrhoea (Total G933, N = 36): 1 (2.8%)
- Subjects with TEAE: Dizziness (Total G933, N = 36): 5 (13.9%)
- Subjects with TEAE: Gastrointestinal Disorders (Total G933, N = 36): 12 (33.3%)
- Subjects with TEAE: Headache (Total G933, N = 36): 4 (11.1%)
- Subjects with TEAE: Immune System Disorders (Total G933, N = 36): 1 (2.8%)
- Subjects with TEAE: Infections and infestations (Total G933, N = 36): 1 (2.8%)
- Subjects with TEAE: Injury associated with device (Total G933, N = 36): 1 (2.8%)
- Subjects with TEAE: Injury, poisoning and procedural complications (Total G933, N = 36): 1 (2.8%)
- Subjects with TEAE: Metabolism and nutrition disorders (Total G933, N = 36): 2 (5.6%)
- Subjects with TEAE: Musculoskeletal and connective tissue disorders (Total G933, N = 36): 1 (2.8%)
- Subjects with TEAE: Musculoskeletal chest pain (Total G933, N = 36): 1 (2.8%)
- Subjects with TEAE: Nasopharyngitis (Total G933, N = 36): 1 (2.8%)
- Subjects with TEAE: Nausea (Total G933, N = 36): 8 (22.2%)
- Subjects with TEAE: Nervous system disorders (Total G933, N = 36): 7 (19.4%)
- Subjects with TEAE: Oropharyngeal pain (Total G933, N = 36): 1 (2.8%)
- Subjects with TEAE: Procedural dizziness (Total G933, N = 36): 1 (2.8%)
- Subjects with TEAE: Respiratory, thoracic and mediastinal disorders (Total G933, N = 36): 1 (2.8%)
- Subjects with TEAE: Seasonal allergy (Total G933, N = 36): 1 (2.8%)
- Subjects with TEAE: Ventricular extrasystoles (Total G933, N = 36): 1 (2.8%)
- Subjects with TEAE: Vomiting (Total G933, N = 36): 10 (27.8%)
- TEAE: Subject with at least one event (Total G933, N = 36): 21 (58.3%)
- subjects who experienced vomiting (all single doses): 10 subjects
- vomiting episodes, total (all single doses): 40 episodes
- anti-drug antibody (ADA) positive subjects (baseline or post-baseline): No subjects were ADA positive
- CL/f (single dose 300 μg, geometric mean): 0.79 L/h
- AUC (0-last) [1]: 364.47 ng·h/mL
- AUC (0-∞) [1]: 379.12 ng·h/mL
- Cmax [1]: 20.98 ng/mL
- t1/2 [1]: 9.54 h
- Tmax (single dose 300 μg, plasma, median): 4.50 h
- tolerability with respect to nausea, vomiting, tachycardia and blood pressure (single doses up to 150 μg): acceptable
- Inter-subject variability (CV) for Cmax and AUC0-∞ (single sc dose): 3-37%
- median tmax (single sc dose, 300 μg): 4.5 h
- geometric mean t1/2 (single sc dose, healthy volunteers): 10 to 12 h
